Measurements published in PubChem BioAssay AID504937 (National Center for Advancing Translational Sciences (NCATS), 2011).
This is a selection; strong and weak results do not stand in their true shares. Active and inactive are the calls of the source. Calls follow the shape of the dose curve; as a rule, active = well fitted inhibition curve with a large enough effect; inconclusive = small, poorly fitted or top-dose-only effect; inactive = no such curve, though single readings can be large or run the other way.

Chains of the proteins cited; added tags and fusions are not shown. Residues count along the entry.
UniProt P17405, 47-631 limits assumed: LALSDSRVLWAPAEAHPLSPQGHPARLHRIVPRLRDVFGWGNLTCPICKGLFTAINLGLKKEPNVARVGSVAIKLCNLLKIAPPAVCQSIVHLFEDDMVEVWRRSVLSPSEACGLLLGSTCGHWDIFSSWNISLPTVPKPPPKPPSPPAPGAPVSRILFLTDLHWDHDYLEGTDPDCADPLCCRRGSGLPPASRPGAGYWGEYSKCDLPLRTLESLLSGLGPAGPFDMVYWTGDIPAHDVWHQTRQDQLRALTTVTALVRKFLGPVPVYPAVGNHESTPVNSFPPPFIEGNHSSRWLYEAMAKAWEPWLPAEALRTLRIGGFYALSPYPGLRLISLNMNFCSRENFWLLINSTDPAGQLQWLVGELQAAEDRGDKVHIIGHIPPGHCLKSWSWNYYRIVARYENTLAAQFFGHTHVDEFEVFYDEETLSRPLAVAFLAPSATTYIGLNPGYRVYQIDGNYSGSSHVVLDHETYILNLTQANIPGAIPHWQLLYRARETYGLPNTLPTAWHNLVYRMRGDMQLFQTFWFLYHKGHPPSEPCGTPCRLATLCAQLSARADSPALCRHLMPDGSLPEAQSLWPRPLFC

biological target: Sphingomyelin phosphodiesterase (Homo sapiens) (UniProt P17405); test: Inhibitors of Secretory Acid Sphingomyelinase (S-ASM): qHTS; conditions: placental ASM, HMU-PC fluorogenic substrate (series up to 57.5 µM), 60 min; at 57.5 µM (top of the series)

| SMILES | activity change, negative = inhibition |
| --- | --- |
| COc1ccccc1OP(C)(=O)Nc1cccc(Br)c1 (stereo unspecified) | inactive: -0.361% |
| CC1=NCCc2c1[nH]c1ccccc21.O=[N+]([O-])c1cc([N+](=O)[O-])c(O)c([N+](=O)[O-])c1 | inactive: 20.9% |
| Cc1cc(C)cc(OP(C)(N)=O)c1 (stereo unspecified) | inactive: -4.01% |
| COc1ccccc1OP(C)(=O)Nc1cc(Cl)ccc1C (stereo unspecified) | inactive: -0.732% |
| COc1ccc(OP(C)(=O)Nc2cccc(F)c2)cc1 (stereo unspecified) | inactive: 4.02% |
| COc1ccccc1OP(C)(=O)Nc1ccc(C)cc1 (stereo unspecified) | inactive: 2.32% |
| Cc1ccc(NP(C)(=O)Oc2ccccc2)c(C)c1 (stereo unspecified) | inactive: -2.48% |
| CCOC(=O)c1ccc(NP(C)(=O)Oc2ccccc2)cc1 (stereo unspecified) | inactive: -0.11% |
| O=[N+]([O-])c1ccc2c(c1)C=Nc1ccccc1O2 | inactive: -2.69% |
| CC(C)(C)c1ccc(OP(C)(=O)Nc2ccc(SC(F)(F)F)cc2)cc1 (stereo unspecified) | inactive: -19.2% |
| Cc1cccc(C)c1OP(C)(N)=O (stereo unspecified) | inactive: -1.35% |
| O=[N+]([O-])c1cc([N+](=O)[O-])c(Nc2cccnc2)c([N+](=O)[O-])c1 | inactive: -5.99% |
| CCN(CC)CCCOC(=O)C(O)(c1ccccc1)c1ccccc1 | inactive: -1.34% |
| CP(=O)(Nc1ccccn1)Oc1ccc(Cl)cc1 (stereo unspecified) | inactive: 1.96% |
| CCOC(=O)c1ccc(NP(C)(=O)Oc2ccc(OC)cc2)cc1 (stereo unspecified) | inactive: -1.83% |
| O=[N+]([O-])c1cc([N+](=O)[O-])c(O)c([N+](=O)[O-])c1.c1ccc(Oc2ccncc2)cc1 | inactive: 11.2% |
| CCOP(C)(=S)SCC(=O)NC(C)C(=O)O (stereo unspecified) | inactive: 4.72% |
| CP(=O)(NC(=O)Nc1ccccc1)Oc1ccccc1 (stereo unspecified) | inactive: 7.14% |
| CCc1ccc(OP(C)(=O)N2CCN(c3ccc([N+](=O)[O-])cc3)CC2)cc1 (stereo unspecified) | inactive: -16.9% |
| Cc1cc(C)cc(OP(C)(=O)Nc2ccc(SC(F)(F)F)cc2)c1 (stereo unspecified) | inactive: 1.27% |
| Cc1cccc(C)c1OP(C)(=O)Nc1ccc(SC(F)(F)F)cc1 (stereo unspecified) | inactive: 0.389% |
| CP(=O)(Nc1ccc(SC(F)(F)F)cc1)Oc1ccc(Cl)cc1 (stereo unspecified) | inactive: -11.9% |
| CP(=O)(Oc1ccccc1)OC(c1ccccc1)C(F)(F)F (stereo unspecified) | inactive: -1.47% |
| CP(=O)(Nc1ccccc1Br)Oc1ccccc1 (stereo unspecified) | inactive: 3.13% |
| COc1ccccc1OP(C)(=O)Nc1ccccc1 (stereo unspecified) | inactive: 5.32% |
| CP(=S)(Nn1cnnc1)Oc1ccccc1 (stereo unspecified) | inactive: 0.96% |
